“And” between values parts separate entries of the source, which are not always exact repeats. Identical values can stand only once. Marks after values point to notes of the source that are not given here.
Columns and labels:
[1] = target: EP3 (Homo sapiens, UniProt P43115); test: Functional activity (HTRF cAMP / HTRF IP1) in cell line stably expressing EP3 receptor; conditions: read-out: absolute EC50; agonistic activation on EP3 target; initial test concentration 10000 nM
[2] = tested on: rat pulmonary artery rings; test: High-K+-induced tension of isolated pulmonary artery rings; conditions: read-out: half-maximal inhibitory concentration (IC50), high-K+-induced vasoconstriction of rat pulmonary arteries; N=5
[3] = target: IP (Homo sapiens, UniProt P43119); test: Functional activity (HTRF cAMP / HTRF IP1) in cell line stably expressing IP receptor; conditions: read-out: absolute EC50; agonistic activation on IP target; initial test concentration 10000 nM
[4] = target: EP1 (Homo sapiens, UniProt P34995); test: Functional activity (HTRF cAMP / HTRF IP1) in cell line stably expressing EP1 receptor; conditions: read-out: absolute EC50; agonistic activation on EP1 target; initial test concentration 10000 nM
[5] = tested on: Human pulmonary arterial smooth muscle cells (HPASMCs); test: PDGF-induced proliferation of pulmonary arterial smooth muscle cells (CellTiter-Glo); conditions: read-out: IC50 for inhibiting PDGF-induced proliferation of pulmonary arterial smooth muscle cells; 20 ng/mL hPDGF-BB; CTG assay
[6] = target: EP4 (Homo sapiens, UniProt P35408); test: Functional activity (HTRF cAMP / HTRF IP1) in cell line stably expressing EP4 receptor; conditions: read-out: absolute EC50; agonistic activation on EP4 target; initial test concentration 10000 nM
[7] = target: DP (Homo sapiens, UniProt Q13258); test: Functional activity (HTRF cAMP / HTRF IP1) in cell line stably expressing DP receptor; conditions: read-out: absolute EC50; agonistic activation on DP target; initial test concentration 10000 nM
[8] = tested on: Monocrotaline (MCT)-Induced Pulmonary Arterial Hypertension Rat Model; test: Monocrotaline (MCT)-induced pulmonary arterial hypertension rat model; conditions: for RVSP / RV/(LV+S): 19 days; for maximum reduction of RVSP / maximum reduction of right ventricular hypertrophy index (RV/(LV+S)): compared with model control group; for RV/(LV+S): right ventricular hypertrophy index
[9] = tested on: TA98 strain; test: Bacterial reverse mutation assay with 6-well plate, TA98
[10] = tested on: SD rats; test: 4-week repeated dose toxicity and toxicokinetic study in rats; conditions: for AUC(0-24): after 28 days of repeated dosing at NOAEL 50 mg/kg
[11] = target: FP (Homo sapiens, UniProt P43088); test: Functional activity (HTRF cAMP / HTRF IP1) in cell line stably expressing FP receptor; conditions: read-out: absolute EC50; agonistic activation on FP target; initial test concentration 10000 nM
[12] = target: TP (Homo sapiens, UniProt P21731); test: Functional activity (HTRF cAMP / HTRF IP1) in cell line stably expressing TP receptor; conditions: read-out: absolute EC50; agonistic activation on TP target; initial test concentration 10000 nM
[13] = target: EP2 (Homo sapiens, UniProt P43116); test: Functional activity (HTRF cAMP / HTRF IP1) in cell line stably expressing EP2 receptor; conditions: read-out: absolute EC50; agonistic activation on EP2 target; initial test concentration 10000 nM
[14] = 0.15 mg/kg oral gavage twice daily
[15] = 0.50 mg/kg oral gavage twice daily
[16] = 1.50 mg/kg oral gavage twice daily

Protein sequences, listed by entry. Tags and fused reporters are not part of them.
UniProt P43115, whole entry: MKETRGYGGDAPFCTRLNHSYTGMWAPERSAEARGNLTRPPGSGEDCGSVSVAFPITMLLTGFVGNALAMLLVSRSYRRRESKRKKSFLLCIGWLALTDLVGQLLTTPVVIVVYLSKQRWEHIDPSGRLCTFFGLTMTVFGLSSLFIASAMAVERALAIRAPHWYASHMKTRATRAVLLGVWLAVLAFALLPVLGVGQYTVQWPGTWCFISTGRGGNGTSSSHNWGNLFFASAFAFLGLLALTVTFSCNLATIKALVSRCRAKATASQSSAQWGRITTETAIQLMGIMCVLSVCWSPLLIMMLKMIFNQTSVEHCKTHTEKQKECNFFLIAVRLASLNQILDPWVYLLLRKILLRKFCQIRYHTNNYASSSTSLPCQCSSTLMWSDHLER
UniProt P43119, whole entry: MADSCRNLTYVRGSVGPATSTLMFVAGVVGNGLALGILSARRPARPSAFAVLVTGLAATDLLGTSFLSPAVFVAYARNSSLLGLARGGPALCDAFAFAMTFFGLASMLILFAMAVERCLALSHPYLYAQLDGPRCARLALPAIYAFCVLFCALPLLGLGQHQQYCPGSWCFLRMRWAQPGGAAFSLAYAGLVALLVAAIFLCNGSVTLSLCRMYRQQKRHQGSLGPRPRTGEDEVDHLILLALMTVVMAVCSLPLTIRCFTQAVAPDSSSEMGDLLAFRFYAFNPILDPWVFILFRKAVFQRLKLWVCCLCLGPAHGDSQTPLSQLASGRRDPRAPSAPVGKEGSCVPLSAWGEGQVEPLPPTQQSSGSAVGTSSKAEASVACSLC
UniProt P34995, whole entry: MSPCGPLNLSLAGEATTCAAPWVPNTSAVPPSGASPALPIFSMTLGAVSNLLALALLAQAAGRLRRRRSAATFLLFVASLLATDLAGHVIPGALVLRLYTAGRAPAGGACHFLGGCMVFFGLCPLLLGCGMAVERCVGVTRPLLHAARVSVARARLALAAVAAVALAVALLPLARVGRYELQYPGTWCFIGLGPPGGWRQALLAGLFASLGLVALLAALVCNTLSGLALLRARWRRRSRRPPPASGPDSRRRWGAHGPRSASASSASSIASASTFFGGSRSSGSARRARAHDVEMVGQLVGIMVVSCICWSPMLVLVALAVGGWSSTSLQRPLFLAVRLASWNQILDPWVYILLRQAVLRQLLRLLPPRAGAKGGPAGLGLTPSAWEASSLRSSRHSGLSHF
UniProt P35408, whole entry: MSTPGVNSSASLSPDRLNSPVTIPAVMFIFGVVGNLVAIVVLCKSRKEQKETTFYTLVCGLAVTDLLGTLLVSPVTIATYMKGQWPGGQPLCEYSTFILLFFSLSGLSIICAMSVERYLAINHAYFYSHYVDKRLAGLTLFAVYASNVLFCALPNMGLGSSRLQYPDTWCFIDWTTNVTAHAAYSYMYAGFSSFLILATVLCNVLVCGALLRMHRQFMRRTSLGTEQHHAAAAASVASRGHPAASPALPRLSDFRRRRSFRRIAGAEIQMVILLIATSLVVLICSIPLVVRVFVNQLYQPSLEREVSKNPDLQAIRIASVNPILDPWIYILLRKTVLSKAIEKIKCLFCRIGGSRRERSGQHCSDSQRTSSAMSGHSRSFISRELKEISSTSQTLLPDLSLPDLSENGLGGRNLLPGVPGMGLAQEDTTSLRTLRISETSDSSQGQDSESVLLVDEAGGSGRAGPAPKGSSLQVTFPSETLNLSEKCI
UniProt Q13258, whole entry: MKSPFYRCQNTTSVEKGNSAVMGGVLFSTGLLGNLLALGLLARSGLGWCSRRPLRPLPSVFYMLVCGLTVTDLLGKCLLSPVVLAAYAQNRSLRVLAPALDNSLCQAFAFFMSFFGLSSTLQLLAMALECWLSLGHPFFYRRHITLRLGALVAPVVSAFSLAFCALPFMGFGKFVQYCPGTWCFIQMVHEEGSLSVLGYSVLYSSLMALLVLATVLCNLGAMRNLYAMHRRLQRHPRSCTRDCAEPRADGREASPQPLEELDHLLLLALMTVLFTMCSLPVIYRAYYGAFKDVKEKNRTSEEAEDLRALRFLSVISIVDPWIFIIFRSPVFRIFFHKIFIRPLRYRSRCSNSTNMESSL
UniProt P43088, whole entry: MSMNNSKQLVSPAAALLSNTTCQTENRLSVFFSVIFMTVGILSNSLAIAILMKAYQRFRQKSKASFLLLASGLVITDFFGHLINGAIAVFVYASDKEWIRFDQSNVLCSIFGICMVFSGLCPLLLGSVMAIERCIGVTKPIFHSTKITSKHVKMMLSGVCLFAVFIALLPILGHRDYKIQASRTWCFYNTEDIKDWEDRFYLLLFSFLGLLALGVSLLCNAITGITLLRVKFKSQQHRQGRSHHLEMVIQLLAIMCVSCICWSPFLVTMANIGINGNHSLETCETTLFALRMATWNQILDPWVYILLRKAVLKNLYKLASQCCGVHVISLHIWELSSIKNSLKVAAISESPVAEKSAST
UniProt P21731, whole entry: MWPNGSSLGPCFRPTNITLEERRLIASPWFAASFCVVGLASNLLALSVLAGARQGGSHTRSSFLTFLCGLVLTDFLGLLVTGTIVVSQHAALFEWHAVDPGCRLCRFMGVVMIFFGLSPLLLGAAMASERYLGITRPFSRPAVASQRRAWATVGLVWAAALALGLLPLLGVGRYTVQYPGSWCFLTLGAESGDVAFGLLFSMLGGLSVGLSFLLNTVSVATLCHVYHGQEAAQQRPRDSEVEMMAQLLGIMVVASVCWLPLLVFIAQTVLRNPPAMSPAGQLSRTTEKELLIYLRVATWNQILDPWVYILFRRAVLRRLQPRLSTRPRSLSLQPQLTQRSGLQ
UniProt P43116, whole entry: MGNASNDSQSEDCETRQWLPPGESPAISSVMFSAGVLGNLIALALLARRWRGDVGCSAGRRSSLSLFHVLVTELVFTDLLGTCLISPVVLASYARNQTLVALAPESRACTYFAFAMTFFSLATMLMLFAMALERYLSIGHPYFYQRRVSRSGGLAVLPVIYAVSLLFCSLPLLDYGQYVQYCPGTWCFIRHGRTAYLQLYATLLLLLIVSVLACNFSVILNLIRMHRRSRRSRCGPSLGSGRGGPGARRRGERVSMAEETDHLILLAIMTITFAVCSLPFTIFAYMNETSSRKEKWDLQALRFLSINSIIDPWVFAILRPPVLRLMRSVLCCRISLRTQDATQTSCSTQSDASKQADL

## CC(C)N(CCCCCC(=O)NS(C)(=O)=O)c1nnc(-c2ccccc2)c(-c2ccccc2)n1
[1]
  EC50: > 10 µM
[2]
  IC50: 11.2 µM
[3]
  EC50: 0.00048 µM
[4]
  EC50: > 10 µM
[5]
  IC50: 9.65 µM
[6]
  EC50: > 10 µM
[7]
  EC50: > 10 µM
[8]; [14]
  RVSP: 55.01±2.54 mmHg
  RV/(LV+S): 38.45±8.01 %
[8]; 0.15 mg/kg oral gavage twice daily, D1
  Body Weight: 300.1 ± 11.7 g
[8]; 0.15 mg/kg oral gavage twice daily, D5
  Body Weight: 333.2 ± 7.6 g
[8]; 0.15 mg/kg oral gavage twice daily, D8
  Body Weight: 354.5±10.0* * g
[8]; 0.15 mg/kg oral gavage twice daily, D12
  Body Weight: 369.1 ± 12.3 g
[8]; 0.15 mg/kg oral gavage twice daily, D15
  Body Weight: 381.7 ± 16.0 g
[8]; 0.15 mg/kg oral gavage twice daily, D19
  Body Weight: 406.7±19.0* * g
[8]; 0.15 mg/kg oral gavage twice daily, D20
  Body Weight: 412.6 ± 18.8 g
[8]; 0.15 mg/kg
  maximum reduction of RVSP: approximately 15%
  maximum reduction of right ventricular hypertrophy index (RV/(LV+S)): 17%
[8]; [15]
  RVSP: 42.99±1.61 mmHg
  RV/(LV+S): 33.29±9.38 %
[8]; 0.5 mg/kg oral gavage twice daily, D1
  Body Weight: 297.6 ± 13.5 g
[8]; 0.5 mg/kg oral gavage twice daily, D5
  Body Weight: 327.6 ± 15.4 g
[8]; 0.5 mg/kg oral gavage twice daily, D8
  Body Weight: 343.0 ± 15.2 g
[8]; 0.5 mg/kg oral gavage twice daily, D12
  Body Weight: 363.4 ± 18.1 g
[8]; 0.5 mg/kg oral gavage twice daily, D15
  Body Weight: 375.2 ± 16.8 g
[8]; 0.5 mg/kg oral gavage twice daily, D19
  Body Weight: 396.2 ± 20.9 g
[8]; 0.5 mg/kg oral gavage twice daily, D20
  Body Weight: 401.3 ± 24.0 g
[8]; 0.5 mg/kg
  maximum reduction of RVSP: 33%
  maximum reduction of right ventricular hypertrophy index (RV/(LV+S)): 27%
[8]; [16]
  RVSP: 36.96±2.21 mmHg
  RV/(LV+S): 32.57±5.39 %
[8]; 1.5 mg/kg oral gavage twice daily, D1
  Body Weight: 296.9 ± 17.5 g
[8]; 1.5 mg/kg oral gavage twice daily, D5
  Body Weight: 330.4 ± 17.3 g
[8]; 1.5 mg/kg oral gavage twice daily, D8
  Body Weight: 347.4 ± 17.5 g
[8]; 1.5 mg/kg oral gavage twice daily, D12
  Body Weight: 362.5 ± 24.5 g
[8]; 1.5 mg/kg oral gavage twice daily, D15
  Body Weight: 371.2 ± 27.1 g
[8]; 1.5 mg/kg oral gavage twice daily, D19
  Body Weight: 391.8 ± 30.9 g
[8]; 1.5 mg/kg oral gavage twice daily, D20
  Body Weight: 399.3 ± 30.8 g
[8]; 1.5 mg/kg
  maximum reduction of RVSP: 43%
  maximum reduction of right ventricular hypertrophy index (RV/(LV+S)): 29%
[8]; HE staining, Compound A 0.15, 0.5, 1.5 mg/kg, Selexipag 1 mg/kg, twice daily 19 days
  effect on lung tissue lesions: a certain improving effect
[9]; TA98+S9, 8 µg/well
  Background lawn: T0
  Reverse mutation colony Mean: 10.0
  Reverse mutation colony Number per well: 11 and 9
[9]; TA98+S9, 16 µg/well
  Background lawn: T0
  Reverse mutation colony Mean: 7.5
  Reverse mutation colony Number per well: 8 and 7
[9]; TA98+S9, 31 µg/well
  Background lawn: T0
  Reverse mutation colony Mean: 8.5
  Reverse mutation colony Number per well: 9 and 8
[9]; TA98+S9, 63 µg/well
  Background lawn: T0
  Reverse mutation colony Mean: 8.0
  Reverse mutation colony Number per well: 7 and 9
[9]; TA98+S9, 125 µg/well
  Background lawn: T0
  Reverse mutation colony Mean: 11.5
  Reverse mutation colony Number per well: 12 and 11
[9]; TA98+S9, 250 µg/well
  Background lawn: T0
  Reverse mutation colony Mean: 8.0
  Reverse mutation colony Number per well: 9 and 7
[9]; TA98+S9, 500 µg/well
  Background lawn: T0
  Reverse mutation colony Mean: 8.5
  Reverse mutation colony Number per well: 10 and 7
[9]; TA98+S9, 1000 µg/well
  Background lawn: T0
  Reverse mutation colony Mean: 6.0
  Reverse mutation colony Number per well: 7 and 5
[9]; TA98-S9, 8 µg/well
  Background lawn: T0
  Reverse mutation colony Mean: 5.0
  Reverse mutation colony Number per well: 6 and 4
[9]; TA98-S9, 16 µg/well
  Background lawn: T0
  Reverse mutation colony Mean: 5.0
  Reverse mutation colony Number per well: 5
[9]; TA98-S9, 31 µg/well
  Background lawn: T0
  Reverse mutation colony Mean: 8.5
  Reverse mutation colony Number per well: 8 and 9
[9]; TA98-S9, 63 µg/well
  Background lawn: T0
  Reverse mutation colony Mean: 5.5
  Reverse mutation colony Number per well: 4 and 7
[9]; TA98-S9, 125 µg/well
  Background lawn: T0
  Reverse mutation colony Mean: 6.5
  Reverse mutation colony Number per well: 8 and 5
[9]; TA98-S9, 250 µg/well
  Background lawn: T0
  Reverse mutation colony Mean: 6.5
  Reverse mutation colony Number per well: 7 and 6
[9]; TA98-S9, 500 µg/well
  Background lawn: T0
  Reverse mutation colony Mean: 5.5
  Reverse mutation colony Number per well: 5 and 6
[9]; TA98-S9, 1000 µg/well
  Background lawn: T0
  Reverse mutation colony Mean: 5.5
  Reverse mutation colony Number per well: 5 and 6
[9]; TA98 strain, ±S9
  final concentration at which a reduction in background lawn was observed: no abnormal background lawn was observed
  final concentration at which non-interfering precipitate was observed: 1000 µg per well
[9]; TA98 strain, ±S9, colonies did not reach twice negative control
  genotoxicity test result: negative
[10]; 50, 150, 500 mg/kg once daily for 4 weeks
  animal death: No animal death was observed
[10]; dosing at not less than 500 mg/kg
  toxicity findings: salivation and thyroid enlargement
[10]; females
  AUC(0-24): 7016 ng·h/mL
[10]; males
  AUC(0-24): 3784 ng·h/mL
[10]; oral gavage once daily for 4 weeks, rats
  No Observed Adverse Effect Level (NOAEL): 50 mg/kg
[10]; safety margin
  NOAEL in rats relative to pharmacologically effective dose: 100 times
[11]
  EC50: > 10 µM
[12]
  EC50: > 10 µM
[13]
  EC50: > 10 µM

From EP4840852A1, “DIPHENYLTRIAZINE COMPOUND, PREPARATION METHOD THEREFOR AND USE THEREOF” (dated 2026)
